Data on 1 molecule can be found in ChEMBL document CHEMBL1149147, “NR2B-selective N-methyl-D-aspartate antagonists: synthesis and evaluation of 5-substituted benzimidazoles” (J Med Chem, 2004).

By UniProt entry, the sequences of proteins in these tests, tags left out.
UniProt Q13224, whole entry: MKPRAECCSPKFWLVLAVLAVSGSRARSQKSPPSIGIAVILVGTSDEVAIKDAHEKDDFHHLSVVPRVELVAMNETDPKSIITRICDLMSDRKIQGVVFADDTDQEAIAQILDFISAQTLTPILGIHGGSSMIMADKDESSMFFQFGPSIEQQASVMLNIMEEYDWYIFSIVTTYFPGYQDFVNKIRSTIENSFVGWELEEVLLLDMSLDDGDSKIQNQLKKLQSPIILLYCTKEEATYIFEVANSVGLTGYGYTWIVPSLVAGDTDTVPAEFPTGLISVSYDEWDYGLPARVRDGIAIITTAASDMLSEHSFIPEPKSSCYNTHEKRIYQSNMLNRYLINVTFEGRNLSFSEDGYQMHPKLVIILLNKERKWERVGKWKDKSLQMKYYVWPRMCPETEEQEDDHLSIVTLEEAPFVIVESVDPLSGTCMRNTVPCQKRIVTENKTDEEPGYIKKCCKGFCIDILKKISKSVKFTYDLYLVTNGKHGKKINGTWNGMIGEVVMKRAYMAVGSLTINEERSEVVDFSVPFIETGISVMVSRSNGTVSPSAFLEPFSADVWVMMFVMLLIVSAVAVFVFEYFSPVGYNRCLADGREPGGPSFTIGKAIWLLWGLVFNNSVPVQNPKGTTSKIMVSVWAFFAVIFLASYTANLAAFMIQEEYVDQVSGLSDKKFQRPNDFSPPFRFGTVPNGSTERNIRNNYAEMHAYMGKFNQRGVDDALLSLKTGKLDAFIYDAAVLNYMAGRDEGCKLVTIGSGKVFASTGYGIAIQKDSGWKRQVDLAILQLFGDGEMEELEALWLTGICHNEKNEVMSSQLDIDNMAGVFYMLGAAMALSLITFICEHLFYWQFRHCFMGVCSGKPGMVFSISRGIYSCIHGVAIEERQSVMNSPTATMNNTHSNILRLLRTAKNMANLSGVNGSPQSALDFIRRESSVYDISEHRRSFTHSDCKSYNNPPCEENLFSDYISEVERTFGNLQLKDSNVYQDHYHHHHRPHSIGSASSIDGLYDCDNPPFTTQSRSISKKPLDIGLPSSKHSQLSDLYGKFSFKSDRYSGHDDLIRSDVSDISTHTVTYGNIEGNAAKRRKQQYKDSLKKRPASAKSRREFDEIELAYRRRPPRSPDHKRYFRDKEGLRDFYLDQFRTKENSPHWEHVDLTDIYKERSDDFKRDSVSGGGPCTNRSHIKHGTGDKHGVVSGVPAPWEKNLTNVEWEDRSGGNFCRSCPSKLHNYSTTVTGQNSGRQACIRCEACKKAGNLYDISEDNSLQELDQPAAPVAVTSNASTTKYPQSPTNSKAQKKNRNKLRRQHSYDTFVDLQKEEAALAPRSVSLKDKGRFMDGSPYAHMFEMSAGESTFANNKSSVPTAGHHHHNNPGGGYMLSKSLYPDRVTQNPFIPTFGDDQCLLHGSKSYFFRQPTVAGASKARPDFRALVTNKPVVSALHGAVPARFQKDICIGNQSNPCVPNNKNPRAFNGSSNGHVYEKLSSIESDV

In the assay the target is Glutamate NMDA receptor; GRIN1/GRIN2B (Homo sapiens, UniProt Q05586+Q13224). Description: Compound was evaluated for in vitro inhibition of [3H][(E)-N-(2-methoxybenzyl)cinnamamidine binding to human NR1a/NR2B receptors expressed in LtK-cells. The assay is classed as cell-based.

In the case of `Oc1ccc2nc(CN3CCC(Cc4ccccc4)CC3)[nH]c2c1`, the affinity, expressed as Ki, was 1.5 nM.
